“Also recorded” adds a separate entry of the source.
Tested on: EpiDerm (EPI-200) skin tissue
Assay: Skin irritation test (MTT tissue viability)
Assay type: cell-based
Settings: MB at various concentrations for 60 minutes, highest dosage 500 mM

With CN(C)c1ccc2nc3ccc(N(C)C)cc3[s+]c2c1.[Cl-] [MB, 3,7-bis(dimethylamino)-phenothiazin-5-ium chloride] the skin irritation was “No skin irritation was observed; also recorded: does not irritate skin”.

Reference: patent publication US10603325B2 (dated 2020)
